Laboratory results as given in PubChem BioAssay AID720508 (The Scripps Research Institute Molecular Screening Center, 2013).
Only a part is listed here, and it is no random draw. Active and inactive are the calls of the source.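 The calls were made as follows: active = inhibition above the mean of compounds falling within the control limits plus 3 SD of them (cut at about 14% in these data); inactive = the rest.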

By UniProt entry, the sequences of proteins in these tests, tags left out. Where a name states a change or a piece, a line headed by the entry shows the natural chain unless it says otherwise.
UniProt P02675: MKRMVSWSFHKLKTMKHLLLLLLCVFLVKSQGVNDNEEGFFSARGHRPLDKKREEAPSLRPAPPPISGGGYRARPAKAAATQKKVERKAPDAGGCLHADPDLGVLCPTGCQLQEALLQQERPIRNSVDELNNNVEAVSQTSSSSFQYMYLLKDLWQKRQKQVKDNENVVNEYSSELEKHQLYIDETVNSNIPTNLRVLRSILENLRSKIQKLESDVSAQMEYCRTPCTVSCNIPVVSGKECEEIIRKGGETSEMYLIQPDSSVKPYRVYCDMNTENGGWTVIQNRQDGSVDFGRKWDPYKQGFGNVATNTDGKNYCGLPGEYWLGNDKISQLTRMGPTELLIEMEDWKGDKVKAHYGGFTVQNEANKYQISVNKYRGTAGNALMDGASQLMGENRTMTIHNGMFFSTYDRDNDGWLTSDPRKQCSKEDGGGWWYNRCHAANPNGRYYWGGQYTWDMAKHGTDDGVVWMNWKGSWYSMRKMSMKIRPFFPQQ

These molecules were tested against Fibrinogen beta chain (Homo sapiens) (UniProt P02675) (assay: small molecules displacing Tn7 from DD(E) complex – biochemical, fluorescence polarization, human fibrin, Tn7 probe, primary screen (AID 720508;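 also: 0% = plate median of compound wells and 100% = 10 µM Aha-Tn7 peptide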)). Settings: FP displacement of FITC-Tn7 peptide from fibrin DD(E); at 8.3 µM; hits give high values; 0% = median of compound wells per plate.

Q: How did the inhibition turn out when `CCOP(=O)(Nc1ccc(C)cn1)OCC` was run?
A: Its inhibition is inactive: 6.05%.

Q: How did the inhibition turn out when `CN(CCCl)Cc1cc(Cl)c(NC2=NCCN2)c(Cl)c1` was run?
A: Its inhibition is inactive: 1.92%.

Q: Which inhibition does the source give for `CC(C)/C=N\N=C(\N)N[N+](=O)[O-]` here?
A: The inhibition was inactive: 5.18%.

Q: With `CC1(CBr)Cn2c(nc3ccccc3c2=O)S1` (stereo not given) as the molecule, how does the inhibition read?
A: The inhibition was inactive: -5.41%.

Q: Which inhibition does the source give for `COc1ccccc1CNC(=O)COC(=O)C(O)(c1ccccc1)c1ccccc1` here?
A: The inhibition was inactive: -4.17%.

Q: `CN(C)C1(CNC(=O)c2ccc(S(C)(=O)=O)cc2)CCCCC1` was tested. Which inhibition did it give?
A: Its inhibition is inactive: 1.51%.

Q: Which inhibition does the source give for `O=C(/C=C/c1ccccc1)OC1CN2CCC1CC2` (stereo not given) here?
A: The inhibition was inactive: -5.73%.

Q: How did the inhibition turn out when `CCCC1OP(=O)(Nc2ccccc2)OCC1CC` (stereo not given) was run?
A: The inhibition was inactive: 0.34%.

Q: For `Cc1nn(-c2ccccc2)c2c1P(=O)(N1CCOCC1)N(C)C(c1ccccc1)=N2` (stereo not given), which inhibition is on record?
A: Its inhibition is inactive: -1.52%.

Q: With `Cc1ccc(C(=O)OC2CN3CCC2CC3)cc1` (stereo not given) as the molecule, how does the inhibition read?
A: Its inhibition is inactive: 0.3%.

Q: How did the inhibition turn out when `CC1CCC(C(C)C)C(OP(=O)(Nc2ccccn2)c2ccccc2)C1` (stereo not given) was run?
A: Its inhibition is inactive: 2.05%.

Q: With `Nc1cccc([As](=O)(O)c2ccccc2)c1` as the molecule, how does the inhibition read?
A: The inhibition was inactive: 0.49%.

Q: Which inhibition does the source give for `O=[As](O)(c1cccs1)c1cccs1` here?
A: Its inhibition is inactive: -2.07%.

Q: Which inhibition does the source give for `Cc1ccc(OCC(=O)OC2CN3CCC2CC3)cc1` (stereo not given) here?
A: Its inhibition is inactive: -0.04%.

Q: Which inhibition does the source give for `NS(=O)(=O)c1cccc(NC(=O)COC(=O)C(O)(c2ccccc2)c2ccccc2)c1` here?
A: Its inhibition is inactive: -5%.

Q: Which inhibition does the source give for `O=P1(Nc2ccc(Br)cn2)COc2ccccc2OC1` here?
A: Its inhibition is inactive: -1.86%.

Q: With `Cc1ccc(S(=O)(=O)N(CCCN)CCCc2c(C)nc(N)[nH]c2=O)cc1` as the molecule, how does the inhibition read?
A: Its inhibition is inactive: 1.83%.

Q: How did the inhibition turn out when `O=P1(Nc2ncccn2)COc2ccccc2OC1` was run?
A: Its inhibition is inactive: 1.5%.

Q: Which inhibition does the source give for `COP(=O)(OC)N1CC1c1ccccc1` (stereo not given) here?
A: Its inhibition is inactive: -5.05%.

Q: How did the inhibition turn out when `CCCCOc1ccc(C(=O)NCC2(N3CCCCC3)CCCCC2)cc1OC` was run?
A: Its inhibition is inactive: -5.95%.

Q: With `Cc1cc(SC(NC(=O)c2ccccc2)C(Cl)(Cl)Cl)nc(C(C)C)n1` (stereo not given) as the molecule, how does the inhibition read?
A: Its inhibition is inactive: -3.84%.

Q: `O=C(O)C(O)c1ccc(N(CCCl)CCCl)cc1` (stereo not given) was tested. Which inhibition did it give?
A: Its inhibition is inactive: -3.11%.

Q: `CCOC(=O)Nc1ccc([As](=O)(O)O)c(O)c1` was tested. Which inhibition did it give?
A: Its inhibition is inactive: 0.94%.

Q: `CC1CCNP(=O)(N(CCCl)CCCl)O1` (stereo not given) was tested. Which inhibition did it give?
A: The inhibition was inactive: -9.66%.

Q: How did the inhibition turn out when `Cc1cc(SC(NC=O)C(Cl)(Cl)Cl)ncn1` (stereo not given) was run?
A: The inhibition was inactive: -3.03%.

Q: For `O=P(Nc1ccccn1)(c1cccc2ccccc12)c1cccc2ccccc12`, which inhibition is on record?
A: Its inhibition is inactive: 2.09%.

Q: How did the inhibition turn out when `O=[N+]([O-])c1ccc(Nc2ccc(Oc3ccc([N+](=O)[O-])cc3[N+](=O)[O-])cc2)c([N+](=O)[O-])c1` was run?
A: The inhibition was inactive: 8.72%.

Q: Which inhibition does the source give for `CCOC(=O)Nc1cccc([As](=O)(O)O)c1` here?
A: Its inhibition is inactive: -0.19%.

Q: `O=C(O)C(=O)c1ccc(N(CCCl)CCCl)cc1` was tested. Which inhibition did it give?
A: The inhibition was inactive: 4.58%.

Q: Which inhibition does the source give for `O=C(COc1ccccc1)OC1CN2CCC1CC2` (stereo not given) here?
A: The inhibition was inactive: 3.23%.

Q: `O=C(Nc1ccncc1[N+](=O)[O-])c1ccc([N+](=O)[O-])cc1[N+](=O)[O-]` was tested. Which inhibition did it give?
A: The inhibition was inactive: 1.57%.

Q: For `COP1(=S)c2c(C)nn(CCC#N)c2N=C(c2ccc(F)cc2)N1C` (stereo not given), which inhibition is on record?
A: The inhibition was inactive: 5.44%.

Q: With `COC(=O)C1(C)COP(=O)(N2CCCC2)OC1` (stereo not given) as the molecule, how does the inhibition read?
A: Its inhibition is inactive: -8.5%.

Q: For `CCC(C)N(CC(C)C)C(=S)SC(NC(C)=O)C(Cl)(Cl)Cl` (stereo not given), which inhibition is on record?
A: Its inhibition is inactive: 8.51%.

Q: `O=C(OC1CN2CCC1CC2)c1cccc([N+](=O)[O-])c1` (stereo not given) was tested. Which inhibition did it give?
A: Its inhibition is inactive: 9.31%.

Q: Which inhibition does the source give for `CCOC(=O)c1ccc(NC(=O)C(C)(CCl)SC)cc1` (stereo not given) here?
A: Its inhibition is inactive: 1.3%.

Q: Which inhibition does the source give for `O=P1(N(CCCl)CCCl)Nc2ccccc2N1` here?
A: Its inhibition is inactive: 2.29%.

Q: Which inhibition does the source give for `O=P1(N(CCCl)CCCl)OCCCN1CCCl` (stereo not given) here?
A: The inhibition was inactive: 3.42%.

Q: `COc1ccc2nc(NP(=O)(c3ccccc3)c3ccccc3)sc2c1` was tested. Which inhibition did it give?
A: The inhibition was inactive: -5.76%.

Q: With `COc1cc(I)ccc1[As](=O)(O)O` as the molecule, how does the inhibition read?
A: Its inhibition is inactive: -4.92%.

Q: With `Cc1c2c(nc3ccccc13)SC(C(Cl)Cl)C2` (stereo not given) as the molecule, how does the inhibition read?
A: Its inhibition is inactive: -2.15%.

Q: Which inhibition does the source give for `O=C(OC1CN2CCC1CC2)C12CC3CC(CC(C3)C1)C2` (stereo not given) here?
A: Its inhibition is inactive: -4.08%.

Q: How did the inhibition turn out when `Cc1cc(=O)[nH]c(N[N+](=O)[O-])n1` was run?
A: Its inhibition is inactive: 8.42%.

Q: For `O=[N+]([O-])c1cc(Oc2ccc([N+](=O)[O-])cc2C(F)(F)F)cc([N+](=O)[O-])c1`, which inhibition is on record?
A: Its inhibition is inactive: 3.35%.

Q: How did the inhibition turn out when `COc1ccc(N/C(=N/P(=O)(N2CCOCC2)N2CCOCC2)N2CCOCC2)cc1` was run?
A: The inhibition was inactive: 3.25%.

Q: How did the inhibition turn out when `Cc1ccc(OP(=O)(Nc2ccc([N+](=O)[O-])cn2)Oc2ccc(C)cc2)cc1` was run?
A: The inhibition was inactive: -1.77%.

Q: For `[N-]=[N+]=NC1CCCCC1NC(=O)c1cc([N+](=O)[O-])cc([N+](=O)[O-])c1` (stereo not given), which inhibition is on record?
A: Its inhibition is inactive: 9.26%.

Q: With `Cc1ccc2nc3c(c(C)c2c1)CC(C(Cl)Cl)S3` (stereo not given) as the molecule, how does the inhibition read?
A: The inhibition was inactive: -1.07%.

Q: `O=[As](O)(c1ccc(O)cc1)c1ccccc1O` was tested. Which inhibition did it give?
A: The inhibition was inactive: -5.2%.

Q: `C[As](=O)(O)c1cccc(C(=O)O)c1` was tested. Which inhibition did it give?
A: Its inhibition is inactive: -2.75%.

Q: With `O=[N+]([O-])c1ccc(-c2cc([N+](=O)[O-])c(O)c([N+](=O)[O-])c2)cc1` as the molecule, how does the inhibition read?
A: Its inhibition is inactive: 1.94%.

Q: For `COc1cc(C(=O)NCC2(N3CCOCC3)CCCCC2)ccc1OCC(C)C`, which inhibition is on record?
A: The inhibition was inactive: -0.79%.

Q: Which inhibition does the source give for `CC(C)NC(=O)NP(=O)(Oc1ccccc1)Oc1ccccc1` here?
A: Its inhibition is inactive: 4.5%.

Q: Which inhibition does the source give for `O=C(OC1CN2CCC1CC2)c1cccc2[nH]cnc12` (stereo not given) here?
A: Its inhibition is inactive: 3.33%.

Q: Which inhibition does the source give for `CCN(CC)C(=S)SC(NC=O)C(Cl)(Cl)Cl` (stereo not given) here?
A: Its inhibition is inactive: 5.59%.

Q: `ClCCSc1nnc(-c2cccnc2)o1` was tested. Which inhibition did it give?
A: The inhibition was inactive: -5.87%.

Q: With `COC(=O)C1(C)COP(=O)(N2CCCCCC2)OC1` (stereo not given) as the molecule, how does the inhibition read?
A: Its inhibition is inactive: -0.44%.

Q: For `CC(C)c1ccc(OP(=O)(Nc2ccccn2)Oc2ccccc2F)cc1` (stereo not given), which inhibition is on record?
A: The inhibition was inactive: 4.34%.

Q: How did the inhibition turn out when `CCn1c(=O)n(C2CCN(CC3CCCCCCC3)C[C@H]2CO)c2ccccc21` (stereo not given in full) was run?
A: The inhibition was inactive: -9.14%.

Q: For `Cc1cc(SC(NC(=O)c2ccc(F)cc2)C(Cl)(Cl)Cl)ncn1` (stereo not given), which inhibition is on record?
A: The inhibition was inactive: -0.11%.

Q: `CCOP(=O)(Nc1ccccc1)OCC` was tested. Which inhibition did it give?
A: Its inhibition is inactive: -1.5%.

Q: Which inhibition does the source give for `Cc1ccc(NP(=O)(Oc2ccccc2F)Oc2ccccc2F)nc1` here?
A: Its inhibition is inactive: -1.47%.

Q: How did the inhibition turn out when `O=P(Nc1nc2ccc(Cl)cc2s1)(c1ccccc1)c1ccccc1` was run?
A: Its inhibition is inactive: -1.74%.

Q: `CN(C)P(=O)(N(C)C)n1c(Nc2ccccc2)nnc1-c1ccccc1` was tested. Which inhibition did it give?
A: Its inhibition is inactive: 3.85%.

Q: How did the inhibition turn out when `CC(=O)Nc1ccc([As](=O)(O)O)cc1` was run?
A: The inhibition was inactive: 5.22%.
